# According to patent publication US12139488B2, “Pyrido[3,2-d]pyrimidine compounds uses thereof for treating a proliferative disease” (Universite de Montreal, priority 2021, dated 2024):
# Legend:
# [1] = system: pERK in Lovo cells (KRAS-G13D); experiment: Phospho-ERK inhibition (AlphaLISA), Lovo; conditions: for IC50: read-out: Lovo pERK IC50; for Lovo pERK % Ymin: value in parentheses
# Protocol: (§1) All cancer cell lines (A375, A101D, A2058, RKO, HT29 SK-MEL 30, IPC298, HepG2, HCT-116, Lovo, SWV620, SW480, NCI-H358, NCI-H2122, Calu-6, NCIH2087, NCIH1755, NCIH1666 and Mewo) were obtained from ATCC and cultured in RPMI-1640 medium (Gibco) supplemented with 5% heat inactivated fetal bovine serum (FBS, Wisent) at 37° C. under 5% CO2. Cells were maintained in T175 flasks (Greiner). They were passaged by removing the culture medium, washing once in 10 mL of room temperature Phosphate Buffered Saline (PBS; Wisent) and incubating at 37° C. with 2 mL of 0.05% Trypsin (Thermo-Fisher). Trypsin was then inactivated by adding complete growth medium and the cells were then replated in a T175 culture dish at the appropriate dilution. All cell lines were routinely tested for mycoplasma contamination. Tissue type and mutational status of each cell line can be found in Table B.
# (§2) AlphaLISA® SureFire® Ultra™ p-ERK 1/2 (Thr202/Tyr204) analysis was conducted on cells plated in 100 μL of complete RPMI-1640 growth medium in 96-well flat-bottomed transparent dishes (Costar) at a density indicated in Table C. Cells were maintained overnight at 37° C. under 5% CO2 before treatment with compounds' dilution series for one hour. The cell density in cells/cm^2 corresponds to cell number divided by the area of one well of a 96-well plate ([…]).
# (§3) In a dilution series 100 μL/well of test substance dilution prepared in complete RPMI-1640 growth media was added to the cells. The dilution series is selected so that ten concentrations cover a range from 10 μM to 0.33 nM. If necessary the initial concentration of 10 μM is increased to 100 μM or lowered to 1 μM (as in the case of A375 and H1666 cells, which are generally more sensitive to the compounds) and further dilution is carried out accordingly. The final concentration of DMSO in the assay is set at 0.5%.
# (§4) After treatment, media was removed and cells were lysed in 50 μL of 1× AlphaScreen Ultra Lysis Buffer (Perkin Elmer). The AlphaLISA® SureFire® Ultra™ p-ERK 1/2 (Thr202/Tyr2O4) (PerkinElmer) reactions were performed with 5 μL of cell lysate according to the manufacturer's specifications in 384-well proxyplates (Perkin Elmer) followed by overnight incubation of the reactions at room temperature in a humidified chamber. After completion of the reactions, the signals were recorded on an EnVision plate reader (Perkin Elmer) using built in AlphaLISA® settings.
# (§5) The effect of each compound dilution on the pERK signal was expressed in % inhibition and calculated as follows. An internal 100% inhibition control (1 M trametinib, cat #HY-10999; MedChem Express; CAS #871700-17-3) was included in each plate and used as a measure of pERK background. First, the value obtained for trametinib was subtracted from each data point. The average of DMSO (vehicle) controls (set as 0% inhibition) was established and used to calculate % inhibition: % inhibition=100*(1-((pERK signalcompound)/(pERK signalDMSO)))
# (§6) The ability of each compound to inhibit pERK signal was expressed as an IC50 value obtained by plotting the inhibition values for each data point of a dilution series and fitting the obtained curves using a log(agonist) versus response-variable slope (four parameters) function using GraphPadPrism (V7.0) or Dotmatics Screening Ultra platform.
# (§7) When present, paradoxical pERK induction is inferred from the negative % inhibition values observed in the pERK IC50 curves of a compound.
# HepG2 cells (NRAS-Q61L) = experiment: Proliferation inhibition (CellTiter-Glo), HepG2; conditions: read-out: HepG2 Prolif. EC50; HepG2, 3 days
# Protocol: as §1
# (§8) CellTiter-Glo® viability analysis was conducted on cells plated in 100 μL of complete RPMI-1640 growth medium in 96-well flat-bottomed white opaque plates (Greiner or Croning) at a density indicated in Table E (for each CCL, number of cells plated per well of a 96-well plate to perform the CellTiter-Glo® cell viability assay). The cell density in cells/cm^2 would correspond to cell number divided by the area of one well of a 96-well plate (0.32 cm^2). Cells were maintained overnight at 37° C. under 5% CO2 before treatment with compounds' dilution series for 3 days.
# (§9) In a dilution series 100 μL/well of test substance dilution prepared in complete RPMI-1640 growth media was added to the cells plated initially in 100 μL of growth media. The dilution series is selected so that ten concentrations cover a range from 10 μM to 0.33 nM. If necessary (as in the case of A375 cells, which were more sensitive to the compounds) the initial concentration of 10 μM is lowered to 1 μM and further dilution is carried out accordingly. The final concentration of DMSO in the assay is set at is 0.5%.
# (§10) After 3 days of incubation, the growth media were removed by aspiration and 60 μL of diluted CellTiter-Glo® reagent (10 μL CellTiter-Glo® reagent+50 μL of PBS) was added to each well. Cells were allowed to lyse and to equilibrate in CellTiter-Glo® reagent by 5 min incubation on a plate shaker followed by 10 min incubation at room temperature. Luminescence signals were then acquired on a Synergy Neo2 plate reader (Biotek).
# as §5, with “proliferation of cancer cell lines” for “pERK signal”, “μM of trametinib;” for “M trametinib,”, “CellTiter-Glo® signal” for “pERK”, “The” for “First, the”, “inhibition=100*(1−((CellTiter-Glo® signalcompound)/(CellTiter-Glo®” for “inhibition=100*(1-((pERK signalcompound)/(pERK”
# as §6, with “proliferation” for “pERK signal”, “a EC50” for “an IC50”, “effect” for “inhibition”
# [2] = system: NCIH1755 cells (BRAF G469A); experiment: Proliferation inhibition (CellTiter-Glo), NCIH1755; conditions: read-out: NCIH1755 Prolif. EC50; NCIH1755, 3 days
# Protocol: as §1, §8, §9, §10
# as §5, with “proliferation of cancer cell lines” for “pERK signal”, “μM of trametinib;” for “M trametinib,”, “CellTiter-Glo® signal” for “pERK”, “The” for “First, the”, “inhibition=100*(1−((CellTiter-Glo® signalcompound)/(CellTiter-Glo®” for “inhibition=100*(1-((pERK signalcompound)/(pERK”
# as §6, with “proliferation” for “pERK signal”, “a EC50” for “an IC50”, “effect” for “inhibition”
# Mewo cells (NF1 LOF) = experiment: Proliferation inhibition (CellTiter-Glo), Mewo; conditions: read-out: Mewo Prolif. EC50, 3 days
# Protocol: as §1, §8, §9, §10
# as §5, with “proliferation of cancer cell lines” for “pERK signal”, “μM of trametinib;” for “M trametinib,”, “CellTiter-Glo® signal” for “pERK”, “The” for “First, the”, “inhibition=100*(1−((CellTiter-Glo® signalcompound)/(CellTiter-Glo®” for “inhibition=100*(1-((pERK signalcompound)/(pERK”
# as §6, with “proliferation” for “pERK signal”, “a EC50” for “an IC50”, “effect” for “inhibition”
# SW480 cells (KRAS G12D) = experiment: Proliferation inhibition (CellTiter-Glo), SW480; conditions: read-out: SW480 Prolif. EC50; SW480, 3 days
# Protocol: as §1, §8, §9, §10
# as §5, with “proliferation of cancer cell lines” for “pERK signal”, “μM of trametinib;” for “M trametinib,”, “CellTiter-Glo® signal” for “pERK”, “The” for “First, the”, “inhibition=100*(1−((CellTiter-Glo® signalcompound)/(CellTiter-Glo®” for “inhibition=100*(1-((pERK signalcompound)/(pERK”
# as §6, with “proliferation” for “pERK signal”, “a EC50” for “an IC50”, “effect” for “inhibition”
# [3] = system: pERK in SW480 cells (KRAS G12D); experiment: Phospho-ERK inhibition (AlphaLISA), SW480; conditions: for SW480 pERK % Ymin: SW480, Table D, value in parentheses; for SW480 pERK % Ymin (lowest value of the IC50 curve): SW480 cells, Ymin above −20% = minimal or no paradoxical activation
# Protocol: as §1, §2, §3, §4, §5, §6, §7
Compound,IC50 [1],Lovo pERK % Ymin [1],EC50 (HepG2 cells (NRAS-Q61L)),EC50 [2],EC50 (Mewo cells (NF1 LOF)),EC50 (SW480 cells (KRAS G12D)),SW480 pERK % Ymin [3],SW480 pERK % Ymin (lowest value of the IC50 curve) [3]
CN(CCN1CCOCC1)S(=O)(=O)c1cn(-c2ccc3ncnc(Nc4c(F)ccc(NS(=O)(=O)c5cccc(Cl)c5Cl)c4F)c3n2)c2ccccc12,30 to 300 nM,3%,< 30 nM,300 to 3000 nM,< 30 nM,300 to 3000 nM,6%,–
CCC1(O)CCN(c2cccc3c2ncn3-c2ccc3ncnc(Nc4c(F)ccc(NS(=O)(=O)c5cccc(Cl)c5Cl)c4F)c3n2)CC1,< 30 nM,25%,< 30 nM,300 to 3000 nM,< 30 nM,300 to 3000 nM,7%,7%
O=S(=O)(Nc1ccc(F)c(Nc2ncnc3ccc(-n4cnc5c(N6CCC(O)(C(F)(F)F)CC6)cccc54)nc23)c1F)c1cccc(Cl)c1Cl,< 30 nM,25%,< 30 nM,300 to 3000 nM,< 30 nM,300 to 3000 nM,6%,6%
Cc1c(F)cccc1S(=O)(=O)Nc1ccc(F)c(Nc2ncnc3ccc(-n4nc(C(=O)N(C)Cc5cccnc5)c5ccccc54)nc23)c1F,–,–,< 30 nM,300 to 3000 nM,300 to 3000 nM,< 30 nM,–,–
COc1ccc(S(=O)(=O)Nc2ccc(F)c(Nc3ncnc4ccc(-n5cc(S(=O)(=O)N(C)CCN(C)C)c6ccccc65)nc34)c2F)c(C)c1F,30 to 300 nM,8%,< 30 nM,< 30 nM,< 30 nM,300 to 3000 nM,−3%,–
Cc1c(Cl)cccc1S(=O)(=O)Nc1ccc(F)c(Nc2ncnc3ccc(-n4cnc5c(N)cccc54)nc23)c1F,30 to 300 nM,17%,< 30 nM,< 30 nM,300 to 3000 nM,300 to 3000 nM,21%,–
O=S(=O)(Nc1ccc(F)c(Nc2ncnc3ccc(-n4nnc5ccccc54)nc23)c1F)c1cccc(Cl)c1Cl,30 to 300 nM,10%,< 30 nM,< 30 nM,< 30 nM,300 to 3000 nM,−3%,–
